# Test results reported in US9566281B2 (Westfaelische Wilhelms-Universitaet, priority 2012, dated 2017).
# Test system: influenza A virus and/or influenza B virus
row,Compound,"antiviral activity in combination with a neuraminidase inhibitor, such as oseltamivir"
1,CCCS(=O)(=O)Nc1ccc(F)c(C(=O)c2c[nH]c3ncc(-c4ccc(Cl)cc4)cc23)c1F [PLX-4032],demonstrate antiviral activity
2,COc1cc(F)c(F)c(Nc2ccc(I)cc2F)c1NS(=O)(=O)C1(C[C@H](O)CO)CC1 [RDEA-119],demonstrate antiviral activity
3,O=C(NOCC1CC1)c1ccc(F)c(F)c1Nc1ccc(I)cc1Cl [CI-1040],demonstrate antiviral activity
4,Cc1cc(C(=O)NOCCO)c(Nc2ccc(I)cc2F)n(C)c1=O [AZD-8330],demonstrate antiviral activity
5,Cn1cnc2c(F)c(Nc3ccc(Br)cc3Cl)c(C(=O)NOCCO)cc21 [AZD-6244],demonstrate antiviral activity
6,CC(=O)Nc1cccc(-n2c(=O)n(C3CC3)c(=O)c3c(Nc4ccc(I)cc4F)n(C)c(=O)c(C)c32)c1 [GSK-1120212],demonstrate antiviral activity
